Key:
[1] = Biological distribution of Tc-99m complexes in rats (pentobarbital anesthesia); assay type: in vivo, Female Sprague-Dawley rats; conditions: average of 2 rats; for Blood, % Injected Dose/Gram Tissue / Brain, % Injected Dose/Gram Tissue / Heart, % Injected Dose/Gram Tissue: pentobarbital anesthesia; for Brain:Blood / Heart:Blood: ratio
Description: Distribution of the Tc-99m labeled compounds was evaluated in rats. Female Sprague-Dawley rats weighing 140 to 220 g (average 170 g) were anesthetized with sodium pentobarbital and were injected in a tail vein with from 0.05 to 10 mCi of the Tc-99m labeled complex in a volume of 0.2 to 0.5 ml. At least two rats were injected for each time point.
The animals were sacrificed at 5 and 30 minutes after injection and selected organs were removed; the tails were discharged to avoid interference from the injection site. The radioactivity in each organ was measured at a standard geometry with a […] sodium iodide scintillation detector adjusted for the 140 KeV emission of Tc-99m. The organs were also weighed to one hundredth of a gram and the activity was calculated as a percent of administered dose per gram.

[2] = Electrophoresis of Tc-99m complex (NaH2PO4, pH 4.5); assay type: physicochemical; conditions: 0.05 M NaH2PO4, pH 4.5, 300 volts, 45 min
[3] = octanol/H2O NaH2PO4 pH 7.4
[4] = 5 min after i.v. (tail vein) injection
[5] = 30 min after i.v. (tail vein) injection

Tc-99m complex of 2-(2-mercapto-2-methylpropylamino)-1-[2-ethylthio-2-methylpropylamino]benzene [Example 34]
Blood, % Injected Dose/Gram Tissue [1, 4]: 0.14 % Injected Dose/Gram Tissue
Brain, % Injected Dose/Gram Tissue [1, 4]: 0.88 % Injected Dose/Gram Tissue
Heart, % Injected Dose/Gram Tissue [1, 4]: 2.47 % Injected Dose/Gram Tissue
Blood, % Injected Dose/Gram Tissue [1, 5]: 0.11 % Injected Dose/Gram Tissue
Brain, % Injected Dose/Gram Tissue [1, 5]: 0.71 % Injected Dose/Gram Tissue
Heart, % Injected Dose/Gram Tissue [1, 5]: 1.02 % Injected Dose/Gram Tissue
Brain:Blood ([1]; 5 min after i.v. injection): 6.26
Heart:Blood ([1]; 5 min after i.v. injection): 17.48
Brain:Blood ([1]; 30 min after i.v. injection): 6.21
Heart:Blood ([1]; 30 min after i.v. injection): 8.94
Electrophoresis [2]: neutral
Partition coefficient [3]: 81
